Source: article PMC9841523, “Discovery of RMC-5552, a Selective Bi-Steric Inhibitor of mTORC1, for the Treatment of mTORC1-Activated Tumors” (Journal of Medicinal Chemistry, 2022)

By UniProt entry, the sequences of proteins in these tests, tags left out. Residues count along the entry.
UniProt P23219, 24-599: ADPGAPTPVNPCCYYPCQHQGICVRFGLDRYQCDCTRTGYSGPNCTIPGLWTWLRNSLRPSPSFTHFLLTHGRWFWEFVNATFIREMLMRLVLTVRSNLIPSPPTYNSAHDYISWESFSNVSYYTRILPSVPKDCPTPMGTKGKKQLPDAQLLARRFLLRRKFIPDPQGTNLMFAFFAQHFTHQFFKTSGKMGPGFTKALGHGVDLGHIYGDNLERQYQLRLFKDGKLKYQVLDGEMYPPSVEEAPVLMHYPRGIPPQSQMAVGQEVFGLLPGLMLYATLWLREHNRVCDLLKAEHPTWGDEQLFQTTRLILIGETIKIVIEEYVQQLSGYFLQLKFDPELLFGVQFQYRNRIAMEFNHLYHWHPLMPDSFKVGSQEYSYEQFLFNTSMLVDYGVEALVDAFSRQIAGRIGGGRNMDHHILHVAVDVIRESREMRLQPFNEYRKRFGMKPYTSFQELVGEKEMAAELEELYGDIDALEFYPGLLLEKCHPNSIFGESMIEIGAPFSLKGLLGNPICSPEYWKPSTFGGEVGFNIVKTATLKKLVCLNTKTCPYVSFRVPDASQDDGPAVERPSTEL

Tests used:
Wnk1, Wnk2, Wnk4 = test: KiNativ kinase panel; assay type: cell-based, human; details: 1 μM, MCF-7 Cells, Activation Loop
COX1(h) = target: T1, COX1(h) (Homo sapiens, UniProt P23219); test: Eurofins Safety Screen 44; assay type: biochemical; details: read-out: % Inhibition of Control Values
T1 construct: Eurofins (ran the panel)

[1] = target: T2, GR (h) (agonist radioligand) (Homo sapiens, UniProt P04150); test: Eurofins Safety Screen 44; assay type: binding; details: read-out: % Inhibition of Control Values
T2 construct: purchased ActivX Biosciences (KiNativ)
T2 sequence (P04150 1-777): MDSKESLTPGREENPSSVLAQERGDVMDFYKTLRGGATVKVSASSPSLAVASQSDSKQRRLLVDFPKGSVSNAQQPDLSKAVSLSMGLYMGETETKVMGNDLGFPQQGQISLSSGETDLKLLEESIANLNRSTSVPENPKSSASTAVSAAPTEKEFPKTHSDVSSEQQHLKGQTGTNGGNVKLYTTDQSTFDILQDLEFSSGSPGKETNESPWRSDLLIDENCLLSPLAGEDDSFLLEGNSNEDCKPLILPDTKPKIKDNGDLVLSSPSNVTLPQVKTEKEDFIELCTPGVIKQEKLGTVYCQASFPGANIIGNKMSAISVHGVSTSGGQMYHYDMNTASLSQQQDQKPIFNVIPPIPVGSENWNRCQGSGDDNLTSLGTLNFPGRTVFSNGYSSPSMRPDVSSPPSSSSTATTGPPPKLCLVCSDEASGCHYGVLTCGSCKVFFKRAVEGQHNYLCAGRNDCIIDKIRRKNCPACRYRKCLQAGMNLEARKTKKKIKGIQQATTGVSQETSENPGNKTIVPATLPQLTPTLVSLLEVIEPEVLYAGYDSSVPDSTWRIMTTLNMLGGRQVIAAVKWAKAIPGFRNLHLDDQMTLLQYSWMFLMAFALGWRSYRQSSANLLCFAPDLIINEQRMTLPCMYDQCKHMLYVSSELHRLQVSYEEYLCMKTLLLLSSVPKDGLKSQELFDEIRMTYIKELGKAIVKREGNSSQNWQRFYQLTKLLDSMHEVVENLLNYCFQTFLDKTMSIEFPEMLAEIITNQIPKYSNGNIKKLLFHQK

[2] = tested on: 4EBP1 T37/T46 phosphorylation (mTORC1); test: AlphaLISA/MSD analysis of 4EBP1 phosphorylation in MDA-MB-468 cells; assay type: cell-based
Experimental: Cell culture and reagents. Cells were obtained from ATCC, grown in appropriate medium supplemented with 10% fetal bovine serum and 1% penicillin/streptomycin and maintained at 37 °C in a humidified incubator at 5% CO 2.
AlphaLISA and MesoScale Discovery (MSD) analysis of 4EBP1, S6K and AKT phosphorylation. mTOR substrate phosphorylation in MDA-MB-468 cells was assayed using AlphaLISA SureFire Ultra kits for p4EBP1 Thr37/46, p-P70S6K Thr389 and p-AKT1/2/3 Ser473 (PerkinElmer), and MSD Multi-Array Assay Systems for Phospho-4EBP1 (Thr37/46) and Phospho-AKT (Ser473) (MSD). Cells were seeded at 25,000 cells per well and exposed the next day to serial three-fold dilutions of compounds in complete medium with 0.1% dimethylsulfoxide (DMSO). After indicated incubation times, cells were lysed and AlphaLISA or MSD performed according to the manufacturers’ protocols. Samples were read using an EnVision Multilabel Plate Reader (PerkinElmer) using standard AlphaLISA settings or using an MSD plate reader. Data were plotted as a function of logM [compound] with a sigmoidal concentration response (variable slope) model fitted to the data to estimate the inhibitor half-maximum effective concentration (EC 50) in Prism 7 (GraphPad). Alternatively, results were analyzed as percentage of control in which 0% was set as signal from 1 μM Torin1 and 100% was set as the mean of DMSO wells on each plate, and inhibitor EC 50 was estimated as described

ROCK1, ROCK2 = test: KiNativ kinase panel; assay type: cell-based, human; details: 1 μM; MCF-7 Cells; Lys1; VYAMKLLSK
Wnk1, Wnk2, Wnk3 = test: KiNativ kinase panel; assay type: cell-based, human; details: 1 μM, MCF-7 Cells, Lys2
[3] = tested on: RSK1 domain1, RSK2 domain1, RSK3 domain1; test: KiNativ kinase panel; assay type: cell-based, human; details: 1 μM, MCF-7 Cells, Lys2

`CO[C@H]1C[C@@H]2CC[C@@H](C)[C@@](O)(O2)C(=O)C(=O)N2CCCC[C@H]2C(=O)O[C@H]([C@H](C)C[C@@H]2CC[C@@H](OC(=O)NCCOCCOCCOCCOCCOCCOCCOCCOCCC(=O)N3CCc4cc(Cn5nc(-c6ccc7oc(N)nc7c6)c6c(N)ncnc65)ccc4C3)[C@H](OC)C2)C[C@@H](O)[C@H](C)/C=C(\C)[C@@H](O)[C@@H](OC)C(=O)[C@H](C)C[C@H](C)/C=C/C=C/C=C/1C` [compound 38] was tested, and the “KiNativ Kinase Panel Data” value (Wnk1, Wnk2, Wnk4) was 23.6, the inhibition at 10 µM (COX1(h)) was 22.1% and the inhibition at 10 µM [1] was 21.8%. The “mTORC1/2 selectivity in MDA-MB-486 cell assay” value [2] was 40×, the “selectivity (mTORC1/mTORC2 ratio)” value [2] was 39.6 and the “selectivity for mTORC1 over mTORC2” value [2] was roughly 40 fold. For the same compound, the “KiNativ Kinase Panel Data” value (ROCK1, ROCK2) was 20.5, the “KiNativ Kinase Panel Data” value (Wnk1, Wnk2, Wnk3) was -22.1 and the “KiNativ Kinase Panel Data” value [3] was 22.0.
